Laboratory results taken from ChEMBL document CHEMBL1127305, “kappa Opioid receptor selective affinity labels: electrophilic benzeneacetamides as kappa-selective opioid antagonists” (J Med Chem, 1994).

How the values were obtained:
[1] = test system: Mus musculus; assay: In vivo the compound was tested for antinociceptive potency by Mouse abdominal stretch assay; settings: Abdomen
[2] = organism: Mus musculus; assay: Tested for antinociceptive potency by Mouse tail flick assay

Structure (SMILES): COC(=O)/C=C/C(=O)Nc1cccc([C@@H](CN2CCCC2)N(C)C(=O)Cc2ccc(Cl)c(Cl)c2)c1
- ED50 [1]: 1.41 µmol/kg
- ED50 [2]: 6.1 µmol/kg
